## Yeast mating assay B: variants of the scFv Ab-14

Values reported by Li et al. 2023, doi:10.1038/s41467-023-39022-2 (FLAb copy).

All variants were tested on one target, the spike HR2 peptide PDVDLGDISGINAS (SARS-CoV-2).

Parent scFv Ab-14: VH joined to VL by a (GGGGS)3 linker. Changes lie in the light chain CDRs alone.
VH: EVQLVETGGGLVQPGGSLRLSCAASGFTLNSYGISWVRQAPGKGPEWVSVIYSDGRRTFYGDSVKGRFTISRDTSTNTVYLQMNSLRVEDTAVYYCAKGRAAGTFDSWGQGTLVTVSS
VL: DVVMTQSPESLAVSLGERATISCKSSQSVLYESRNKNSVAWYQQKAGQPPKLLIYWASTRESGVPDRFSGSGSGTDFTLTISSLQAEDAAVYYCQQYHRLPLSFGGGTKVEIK

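Phage display of a naive human antibody library on the peptide gave the parent. These sequences belong to a second round, designed from the earlier measurements on random variants of the parent. Their group label is 14L_En_HC (En: ensemble of fine-tuned language models; HC: hill climbing; a sequence that several methods proposed may carry one label only). AlphaSeq pools MATa yeast showing the antibodies with MATalpha yeast showing the peptide. After mating in shaken culture at 30 °C for 16 h, diploids were selected and their barcode pairs sequenced. Read counts were normalised to the haploid input and turned into Kd by a linear fit to BCL2-family pairs of known affinity, for each replicate. Mating was done six times.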

Each variant is given by its three light chain CDRs, as the data file delimits them; those of the parent are KSSQSVLYESRNKNSVA, WASTRES, QQYHRLPLS.
Scale: log10 of Kd in nM, estimated from mating counts; low values are strong binders.
"nd" marks a missing value. The strain was present, yet no cells mated with the target were sequenced in that replicate, which points to weak or no binding.
In the paper, a design with two or fewer of six values counts as a poor binder.

CDR-L1,CDR-L2,CDR-L3,"replicates, log10 nM",signal with controls
QITQLVGYGQRNKNSVA,QMSTREN,QQYDRLPLS,0.52 / 0.71 / 0.25 / 0.18 / -0.04 / 0.38,0 of 18
KLSQVTNSEHRNKNSIA,EMVTREK,QQYDRLPLS,0.81 / 0.55 / 0.50 / 0.59 / 0.65 / 0.88,0 of 18
HVSEMIFAQMKMRNSVA,ENSTRES,QQYDRLPLS,nd / nd / nd / nd / nd / nd,0 of 18
TISQSLLMQTSHKNSVA,GEETRYA,QQYHRLPLS,0.02 / -0.10 / -0.19 / 0.16 / 0.00 / -0.09,0 of 18
KLGQSTAMTSRMKNNVA,DLNTRER,QQYHRLPLS,0.52 / 0.64 / 0.32 / 0.11 / 0.12 / 0.36,2 of 18 (2.74)
TLTQVPGMESHNKNSVA,DLSTRGS,QQYHRLPLS,-0.35 / -0.17 / -0.37 / -0.30 / -0.39 / -0.15,1 of 18 (1.45)
KLSQYVGGESRNKSSLA,DNDTRES,QQYHRLPLS,0.54 / 1.05 / 1.32 / 0.69 / 0.56 / 1.25,0 of 18
MFSQLVYTGSHTRNAVA,QASTREN,QQYHRLPLS,0.72 / 1.14 / 1.09 / 1.00 / 1.02 / 1.21,0 of 18
TISQLMLYESRNKNNVA,GTSTREQ,QCYHRLPLS,1.95 / nd / 0.90 / 0.90 / 3.81 / 4.00,1 of 18 (1.69)
KLSQVQEYEMHNKDNVA,DLTTRGS,QDYHRLPLS,0.33 / 0.47 / 0.30 / 0.39 / 0.09 / 0.67,1 of 18 (2.00)
HISMVMGTKGYAKNSVA,NEETRED,QQYHRLPLS,1.79 / 1.30 / 2.35 / 0.70 / 1.80 / 1.96,0 of 18
KISYLGEYFSTNHSAIA,QASTREQ,QQYHRLPLS,0.87 / 0.69 / 0.42 / 0.63 / 0.55 / 0.60,1 of 18 (2.50)
TISQSAEQESHNKNSVA,DLSVRGS,QQYDRLPLS,2.23 / 1.89 / 1.80 / 1.77 / 1.76 / 1.93,0 of 18
KITQLVMETSKNKNNVA,EVSTVPV,QQYHRLPLS,0.57 / 0.63 / 0.59 / 2.19 / 0.40 / 0.84,0 of 18
KLSQVTHSEHKAKNSIA,EMVTREK,QQYDRLPLS,0.90 / 1.02 / 0.99 / 0.59 / 0.83 / 1.13,0 of 18
KLSMLYRYESQEKNSIA,EMSTREE,QSYHRLPLS,2.76 / 1.60 / nd / 1.10 / 1.53 / 1.99,0 of 18
HISQSVGMTSRNKNSVA,ENSTREA,QQYDRLPLS,nd / nd / nd / 3.06 / 2.86 / 2.29,0 of 18
MFSQSVMYGSFMRNSVA,QTSTREE,QQYDRLPLS,0.48 / 0.48 / 0.40 / 0.35 / 0.30 / 0.50,1 of 18 (2.25)
MISQSFLIGSRAKNNVA,QTSTRES,QQYDRLPLS,-0.14 / -0.11 / -0.37 / -0.43 / -0.43 / -0.16,1 of 18 (3.97)
KLRQSTVIESFEKNNVA,EMTTRES,QSYDRLPLS,1.12 / 1.93 / 0.81 / 2.00 / 1.05 / 1.12,0 of 18
TIGQVMHYESRNKNSVA,QTSIREE,QDYDRLPLS,2.57 / 2.00 / 2.38 / 1.80 / 2.91 / 2.47,2 of 18 (3.35)
MMSQMFEGLSTSKNPVA,QVSTRLE,QQYHRLPLS,1.79 / 1.01 / 1.88 / 1.26 / 0.62 / 0.82,0 of 18
KLSQVTEWEMHNKDNVA,DLTTRGA,QDYHRLPLS,0.20 / 0.33 / 0.25 / 0.18 / 0.17 / 0.23,0 of 18
TIGQMFNGESRIRNSVA,QASTREQ,QSYDRLPLA,1.28 / 1.05 / 1.01 / 1.28 / 1.48 / 1.21,3 of 18 (3.23)
IISQVDGYLMHNTNSIA,DQTTRGK,QQYDRLPLS,0.42 / 0.47 / 0.33 / 0.44 / 0.38 / 0.64,1 of 18 (1.97)
KLSMSYRYETEEKNSIA,ELVTRVS,QQYHRLPLS,nd / nd / nd / nd / nd / nd,1 of 18 (1.70)
QLSGPMVSESKKKNSVA,EFSTRGS,QQYHRLPLS,nd / 1.10 / 1.52 / 0.81 / 1.60 / 1.02,0 of 18
KLSATYRYETQNKNSIA,EMTTRES,QCYHRLPLS,0.53 / 0.89 / 0.43 / 0.56 / 0.29 / 0.55,1 of 18 (4.52)
MISESVMYEQRNRNSVA,DNSTRED,QCYDRLPLS,nd / nd / nd / nd / nd / nd,0 of 18
KLSQLFYKESKNKNNVA,EMTTRGK,QQYDRLPLS,0.37 / 0.69 / 0.09 / 0.26 / -0.05 / 0.74,0 of 18
KISQMFNVGTKNTNSLA,EMNTRGL,QDYHRLPLS,1.34 / 1.15 / 1.15 / 1.41 / 1.59 / 1.47,0 of 18
TISQSAHMESHNKNNVA,DLNLRGS,QQYDRLPLS,0.77 / 0.83 / 0.19 / 0.68 / 0.60 / 0.77,2 of 18 (3.87)
HISMSMNWLTRNKNSIA,EESTRED,QQYFRLPLS,0.30 / 0.19 / 0.22 / 0.00 / 0.02 / 0.59,0 of 18
KLRSSTHIESFNKNNVA,EMTTRES,QSYDRLPLS,0.84 / 1.15 / 1.05 / 0.71 / 0.87 / 1.44,1 of 18 (1.88)
SISMSMAFLSRNKNSVA,ENSTREY,QQYDRLPLL,1.43 / 1.92 / 1.89 / 2.46 / 2.05 / 1.95,4 of 18 (3.00)
KLSIMYQHTSREKNNIA,ERSTREE,QQYHHLPLS,1.27 / 0.39 / 0.57 / 0.39 / 0.75 / 0.69,0 of 18
KLYMSTGLESRNKDSIA,DNSTRGT,QQYHRLPLS,nd / nd / nd / nd / 3.33 / nd,0 of 18

The closing 4 entries, repeated:

CDR-L1	CDR-L2	CDR-L3	replicates, log10 nM	signal with controls
KLRSSTHIESFNKNNVA	EMTTRES	QSYDRLPLS	0.84 / 1.15 / 1.05 / 0.71 / 0.87 / 1.44	1 of 18 (1.88)
SISMSMAFLSRNKNSVA	ENSTREY	QQYDRLPLL	1.43 / 1.92 / 1.89 / 2.46 / 2.05 / 1.95	4 of 18 (3.00)
KLSIMYQHTSREKNNIA	ERSTREE	QQYHHLPLS	1.27 / 0.39 / 0.57 / 0.39 / 0.75 / 0.69	0 of 18
KLYMSTGLESRNKDSIA	DNSTRGT	QQYHRLPLS	nd / nd / nd / nd / 3.33 / nd	0 of 18

Background: pairings of all light chain designs with three empty control strains gave a value in 4% of cases (median 2.64, 5th percentile 1.59). Values in that range, when seen in few replicates, are hard to tell from nonspecific mating. Also given: how often the same scFv was detected with the empty control strains, with their mean in brackets.
A sequence measured in both rounds can read differently, since the two assays cover different ranges.